Literature values as cited in patent publication US8211906B1, “Method of inhibiting growth of neoplastic cells and inhibiting infection by administering an immune enhancer drug” (priority 2003, dated 2012).

Test system: herpes simplex virus
Details: hydrochloride solution injected subcutaneously in mice; cited from earlier work

## CC(C)Cn1cnc2c(N)nc3ccccc3c21 [imiquimod hydrochloride]
  effect on activity of vaccine against herpes simplex virus: enhanced the activity

Counter-ions that a name gives are not always drawn.
